Reference: paper PMC12139522

Target: actin (G-actin polymerised to F-actin) used in the low-speed co-sedimentation assays (UniProt P68135)
Assay: co-sedimentation; low-speed (13,500 x g, 30 min, 4°C) F-actin co-sedimentation; 3.0 μM G-actin incubated 1.5 h at RT with TPRN or control protein in 10 mM Tris pH 7.5, 1 mM ATP, 50 mM KCl, 2 mM MgCl2; actin in supernatant and pellet by SDS-PAGE and Coomassie

“TRX-TPRN (mouse full-length taperin with an N-terminal thioredoxin tag) (from UniProt A2AI08 1-749) (natural protein)” was tested, and the concentration of TRX-TPRN that saturates the binding sites of 3 μM F-actin was 100 nM and the percent of actin in the pellet was > 90%.
